Drawing on patent US20150147342A1 (published 2015), this text covers Kd for one molecule.

Chains of the proteins cited; added tags and fusions are not shown. A line that says so, or that is headed by a name, gives the form on record, which may keep a tag or linker.
Dimeric fibrinogen-like domain of mouse (Mus musculus) Ang-2 conjugated to human IgG1, one chain, as listed by the source limits assumed: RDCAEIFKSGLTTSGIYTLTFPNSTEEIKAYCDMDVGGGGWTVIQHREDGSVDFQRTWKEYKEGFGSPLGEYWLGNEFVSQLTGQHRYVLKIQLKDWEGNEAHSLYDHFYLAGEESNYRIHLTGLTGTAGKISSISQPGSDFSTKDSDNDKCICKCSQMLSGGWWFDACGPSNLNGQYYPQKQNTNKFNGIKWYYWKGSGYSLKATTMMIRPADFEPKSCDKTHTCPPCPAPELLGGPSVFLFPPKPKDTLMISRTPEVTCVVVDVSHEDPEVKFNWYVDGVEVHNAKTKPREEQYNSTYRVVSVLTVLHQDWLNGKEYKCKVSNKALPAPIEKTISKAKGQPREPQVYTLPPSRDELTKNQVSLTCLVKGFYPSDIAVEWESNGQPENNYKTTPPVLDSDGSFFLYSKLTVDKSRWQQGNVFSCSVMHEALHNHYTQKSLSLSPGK

The target of the experiment is T1, Dimeric fibrinogen-like domain of mouse (Mus musculus) Ang-2 conjugated to human IgG1 (mouse (Mus musculus)).
T1 construct: also called Dimeric Mouse Ang-2FD; Mouse Ang-2FD-hFc
Put plainly: SPR, hIgG1 antibody captured, room temp.

B1: H1H744N (antibody, V domains shown)
VH: QVQLVQSGVEVKKPGASVKVSCKTSGYTFSNNGFSWVRQAPGQGLEWLGWISGYNGNTNYAQKFQGRVTMTTDTSTSTAYMELRTLRSDDTAVYYCARDQDYSNFHWLDPWGQGTLVTVAS
VL: DIQMTQSPSSVSASVGDRVIITCRASQGLSSWLAWYQQKPGTAPKLLIHSASSLQTGVPSRFSGSGSGTEFALTINSLQPEDFGTYYCQQANSFPLTFGGGTRVEIK
For the molecule B1, binding was put at a Kd of 0.158 nM.
